{"source": "PubChem BioAssay (Tox21)", "note": "Where “and” joins values, the source holds several entries; their conditions need not be identical. Identical values can stand only once. This is a selection; strong and weak results do not stand in their true shares. Calls of active or inactive are those of the source. The call rests on the fitted dose curve; in most records, active means well fitted curve in the direction sought with a large enough effect in the repeat runs; inconclusive means weak or mixed curves; inactive means flat fitted curve, though single readings scatter. On the % scale 0 is the no-effect control and ±100 the full control effect.", "data": [{"experiment": "qHTS assay to test for compound auto fluorescence at 460 nm (blue) in HepG2 cells (AID 720687)", "conditions": "autofluorescence 405/460 nm, 1 h, at 18.6 µM (top of the series)", "excerpt": "(§1) U.S. Tox21 Program National Center for Advancing Translational Sciences [NCATS] NIH Chemical Genomics Center [NCGC] U.S. Environmental Protection Agency [EPA] National Institutes of Environmental Health Sciences [NIEHS] National Toxicology Program [NTP] U.S. Food and Drug Administration [FDA] Tox21 Assay Overview: Compound auto fluorescence often interferes with screening of the compound library against various biological targets and signaling pathways. Some of these compounds may have fluorophoric properties. Such properties may interfere with the assay outputs resulting in false positives and/or negatives. To decrease such complications and ensure the compound activities are relevant in terms of biological response, the Tox21 10K compound library was screened for auto fluorescence. From the fluorophores used as reporter signals in our screening assays, the auto fluorescence equivalencies of compounds against three fluorophores have been evaluated: Triamterene, Fluorescein and Rose Bengal sodium for blue, green and red fluorescence, respectively. The fluorescence intensities were measured using Excitation/Emission wavelengths at 405/460nm, 485/535nm and 540/590nm for blue, green and red labels, respectively. This assay includes the blue fluorescence data.\n(§2) Tox21 Assay Protocol Summary: 2,000 HepG2 cells in 5 uL of culture medium (MEM containing 10% FBS) per well were dispensed into black wall/clear bottom 1536-well plates using a Multidrop Combi Dispenser (ThermoFisher Scientific, Waltham, MA). The assay plates were incubated overnight at 37 C to allow cell attachment to the well bottom, followed by the transfer of 23 nL compound or DMSO vehicle by a pintool work station (Kalypsys , San Diego, CA). After the assay plates were incubated for 1 hr at 37 C and 5% CO2, fluorescence intensities in the assay plates were measured by an Envision (PerkinElmer, Shelton, CT) plate reader using three labels for measuring blue, green and red fluorescence at […] 460, 535 and 590 nm respectively.", "values": [{"smiles": "C/C1=C2N=C(/C=C3N=C(/C(C)=C4\\[N-][C@@](C)([C@@H]5N=C1[C@](C)(CCC(=O)NC[C@@H](C)OP(=O)([O-])O[C@H]1[C@@H](O)[C@@H](n6cnc7cc(C)c(C)cc76)O[C@@H]1CO)[C@H]5CC(N)=O)[C@@](C)(CC(N)=O)[C@@H]4CCC(N)=O)[C@@](C)(CC(N)=O)[C@@H]\\3CCC(N)=O)C(C)(C)[C@@H]/2CCC(N)=O.[C-]#N.[Co+3]", "fluorescence, % of fluorescent control": "inactive: 0.131%"}]}, {"experiment": "qHTS assay to test for compound auto fluorescence at 460 nm (blue) in HepG2 cells (AID 720687)", "conditions": "autofluorescence 405/460 nm, 1 h, at 46 µM (top of the series)", "excerpt": "as §1, §2", "values": [{"smiles": "CC(C)OP(=O)(F)OC(C)C", "fluorescence, % of fluorescent control": "inactive: -0.0835%"}, {"smiles": "O=[N+]([O-])OCC(CO[N+](=O)[O-])(CO[N+](=O)[O-])CO[N+](=O)[O-]", "fluorescence, % of fluorescent control": "inactive: 0.0932%"}, {"smiles": "CCOP(=O)(CC)Oc1ccc([N+](=O)[O-])cc1", "note": "(stereo not given)", "fluorescence, % of fluorescent control": "inactive: -0.21%"}, {"smiles": "CN(C)CCS", "fluorescence, % of fluorescent control": "inactive: -0.0667%"}, {"smiles": "O=[N+]([O-])[O-].[NH4+]", "fluorescence, % of fluorescent control": "inactive: -0.0235%"}, {"smiles": "O=[N+]([O-])c1cccc([N+](=O)[O-])c1", "fluorescence, % of fluorescent control": "inactive: 0.0358%"}, {"smiles": "OCCSCCO", "fluorescence, % of fluorescent control": "inactive: 0.0321%"}, {"smiles": "CC(C)N(CCCl)C(C)C", "fluorescence, % of fluorescent control": "inactive: 0.0318%"}]}, {"experiment": "qHTS assay to test for compound auto fluorescence at 460 nm (blue) in HepG2 cells (AID 720687)", "conditions": "autofluorescence 405/460 nm, 1 h, at 91.3 µM (top of the series)", "excerpt": "as §1, §2", "values": [{"smiles": "CP(=O)(O)OCCC[Si](O)(O)O", "fluorescence, % of fluorescent control": "inactive: 0.0651%"}, {"smiles": "COP(C)(=O)OC", "fluorescence, % of fluorescent control": "inactive: 0.0483%"}, {"smiles": "[NH4+].[O-][Cl+3]([O-])([O-])[O-]", "fluorescence, % of fluorescent control": "inactive: 0.0195%"}, {"smiles": "O=[N+]([O-])OCC(CO[N+](=O)[O-])(CO[N+](=O)[O-])CO[N+](=O)[O-]", "fluorescence, % of fluorescent control": "inactive: 0.0355%"}, {"smiles": "Cc1ccc([N+](=O)[O-])c([N+](=O)[O-])c1", "fluorescence, % of fluorescent control": "inactive: -0.0232%"}, {"smiles": "Cc1ccc([N+](=O)[O-])cc1[N+](=O)[O-]", "fluorescence, % of fluorescent control": "inactive: -0.192% and inactive: 0.007%"}, {"smiles": "O=[N+]([O-])[O-].[NH4+]", "fluorescence, % of fluorescent control": "inactive: 0.0395% and inactive: 0.0204%"}, {"smiles": "CCOP(=O)(CC)OCC", "fluorescence, % of fluorescent control": "inactive: 0.121%"}, {"smiles": "CC(C)OP(C)(=O)OC(C)C", "fluorescence, % of fluorescent control": "inactive: -0.166% and inactive: -0.221%"}, {"smiles": "Cc1cccc([N+](=O)[O-])c1[N+](=O)[O-]", "fluorescence, % of fluorescent control": "inactive: -0.416%"}, {"smiles": "COc1ccc([N+](=O)[O-])cc1[N+](=O)[O-]", "fluorescence, % of fluorescent control": "inactive: 0.134%"}, {"smiles": "Cc1c([N+](=O)[O-])cccc1[N+](=O)[O-]", "fluorescence, % of fluorescent control": "inactive: -0.435% and inactive: -0.0004%"}, {"smiles": "CC(C)N(CCO)C(C)C", "fluorescence, % of fluorescent control": "inactive: 0.364%"}]}, {"experiment": "qHTS assay to test for compound auto fluorescence at 460 nm (blue) in HepG2 cells (AID 720687)", "conditions": "autofluorescence 405/460 nm, 1 h, at 95.7 µM (top of the series)", "excerpt": "as §1, §2", "values": [{"smiles": "COP(C)(=O)OC", "fluorescence, % of fluorescent control": "inactive: -0.0493%"}, {"smiles": "[NH4+].[O-][Cl+3]([O-])([O-])[O-]", "fluorescence, % of fluorescent control": "inactive: -0.0934%"}, {"smiles": "Cc1ccc([N+](=O)[O-])c([N+](=O)[O-])c1", "fluorescence, % of fluorescent control": "inactive: -0.403%"}, {"smiles": "N=C(N)N[N+](=O)[O-]", "fluorescence, % of fluorescent control": "inactive: -0.0486%"}, {"smiles": "Nc1cc([N+](=O)[O-])cc([N+](=O)[O-])c1O", "fluorescence, % of fluorescent control": "inactive: -0.765%"}, {"smiles": "O=[N+]([O-])c1cccc([N+](=O)[O-])c1", "fluorescence, % of fluorescent control": "inactive: 4.45%"}, {"smiles": "CCN(CC)CCCl", "fluorescence, % of fluorescent control": "inactive: -0.159%"}, {"smiles": "OCCSCCO", "fluorescence, % of fluorescent control": "inactive: 0.149%"}]}]}
